Assays:
[1] = test system: inflamed knee joint; assay: Blood pressure response to compression of the kaolin/carrageenan inflamed knee joint; settings: for compression evoked increase in BP: intrathecal delivery
[2] = molecular target: human κ receptor (Homo sapiens, UniProt P41145); assay: Opiate receptor binding, κ; settings: read-out: In Vitro Binding Affinities Human Opiate Receptors Ki, κ

Amino acid sequences for entries named in this document (tags omitted). A change or cut given only in a name is not applied to a line headed by its entry.
UniProt P41145: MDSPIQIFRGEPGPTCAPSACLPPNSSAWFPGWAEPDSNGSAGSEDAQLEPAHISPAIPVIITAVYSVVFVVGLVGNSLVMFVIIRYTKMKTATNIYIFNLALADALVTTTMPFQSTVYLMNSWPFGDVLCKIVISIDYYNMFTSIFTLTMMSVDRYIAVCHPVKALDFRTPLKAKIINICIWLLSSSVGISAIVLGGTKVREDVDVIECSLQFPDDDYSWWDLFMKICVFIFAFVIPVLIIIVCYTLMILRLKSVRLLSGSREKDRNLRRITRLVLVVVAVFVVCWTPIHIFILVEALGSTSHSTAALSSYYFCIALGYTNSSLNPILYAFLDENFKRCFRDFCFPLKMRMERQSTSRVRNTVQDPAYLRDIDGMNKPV

Compound | ordering of activity, blockade of the compression-evoked increase in BP ([1]; intramuscular (IM) administration) | compression evoked increase in BP [1] | Ki [2]
CN(C(=O)Cc1ccc(Cl)c(Cl)c1)[C@@H]1CCCC[C@H]1N1CCCC1 (relative stereo) | 0 | effectively blocked | 
N#CC(CCN1CCC(C(=O)O)(c2ccccc2)CC1)(c1ccccc1)c1ccccc1 [Difenoxin] |  |  | > 1000 nM
Spiradoline mesylate |  | effectively blocked | 
